# Measured affinities in a library of Ab-14 light chain variants

Data: MIT Lincoln Laboratory AlphaSeq set, Li et al. 2023, doi:10.1038/s41467-023-39022-2, as distributed in FLAb.

The target is the same throughout: PDVDLGDISGINAS, from the HR2 region of SARS-CoV-2 spike.

Parent: Ab-14, a human scFv built as VH, three GGGGS repeats, VL. Only the CDRs of the light chain vary.
VH: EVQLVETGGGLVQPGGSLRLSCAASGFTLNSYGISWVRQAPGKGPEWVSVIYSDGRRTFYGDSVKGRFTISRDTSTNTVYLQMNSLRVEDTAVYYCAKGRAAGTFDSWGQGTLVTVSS
VL: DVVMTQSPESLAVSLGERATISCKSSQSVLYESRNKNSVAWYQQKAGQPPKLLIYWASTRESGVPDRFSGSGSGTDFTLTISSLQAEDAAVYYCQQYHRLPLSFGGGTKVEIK

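This is the validation round: designs drawn from the data on random variants, tested in the same kind of assay. Their group label is 14L_En_Gibbs (En: ensemble of fine-tuned language models; Gibbs: Gibbs sampling). The scFvs were displayed on barcoded MATa yeast, the peptide on MATalpha yeast. Binding brings cells together so that they mate, and sequencing counts the barcode pairs among the diploids. A regression on co-assayed BCL2-family reference pairs converts the normalised counts of each replicate to an apparent Kd. Mating was done six times.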

The parent's light chain CDRs are KSSQSVLYESRNKNSVA, WASTRES, QQYHRLPLS; each variant's own CDRs replace them letter for letter.
Affinities are written as log10 Kd with Kd in nM; a lower number is a better binder.
An entry "nd" has no value in the source: the pair was not observed among the diploids in that replicate. This suggests poor binding but is not conclusive.
Background: pairings of all light chain designs with three empty control strains gave a value in 4% of cases (median 2.64, 5th percentile 1.59). Values in that range, when seen in few replicates, are hard to tell from nonspecific mating. Also given: how often the same scFv was detected with the empty control strains, with their mean in brackets.
The parent sequence was in this pool as ten entries: three were never detected, three once, and four in most replicates, with averages from 0.34 to 2.37.
In the paper, a design with two or fewer of six values counts as a poor binder.
Values of this round are not directly comparable with the first-round values of the same sequences.

CDR-L1 | CDR-L2 | CDR-L3 | log10 Kd, replicates | empty controls
QLQLQPREGAQEQNSIA | DESEADM | QHYARLPLT | nd nd nd nd nd nd | 0/18
KLGNQEQMNGMATQNVA | AMNTVVD | QEYHRLPLI | 0.50 0.02 0.21 0.43 0.30 0.61 | 1/18 (1.64)
MIQQGENRDSEHYNSIA | NGHERPI | QQYYTLPLV | 0.71 0.55 0.77 0.43 0.51 0.78 | 1/18 (1.82)
KIAHAPLEFNEKMNSVA | NGACAEI | QQYDRLPLA | nd nd nd nd nd nd | 0/18
QLQFEDVQYGVNEQAIA | EENQRMQ | QHYFRLPLS | -0.06 0.37 0.03 0.33 -0.03 0.26 | 2/18 (2.26)
HISIKLPGNWKMMDSVA | HSALRAE | QQYDRLPLM | 0.55 0.53 0.59 0.25 0.60 0.67 | 1/18 (2.22)
RMEWHNSGATEAKNSMA | GVEHRAN | QQYDRLPLE | 0.63 0.56 0.55 0.47 0.73 0.67 | 2/18 (2.57)
QLQIHDNGYMGMRNNVA | DGGMVRM | QQYARLPLM | 0.44 0.19 0.10 0.20 0.14 0.51 | 0/18
NLSIQCQHQNMSANAVA | QTEIRCV | QQYAQLPLA | 2.56 2.67 2.17 2.15 1.96 3.27 | 0/18
SLQTDYSIAQDRWSNVA | HADQREA | QQYFRLPIV | 0.21 0.04 0.09 0.00 0.17 -0.06 | 1/18 (2.51)
NLSDGEMYENATRSNIA | DTSMRDF | QQYNRLPLD | 1.53 1.50 0.95 1.38 1.41 1.79 | 0/18
SLQDMEREMNSHEQAIA | DGTESAR | QQYFQLPLH | 0.99 1.00 0.80 0.76 0.83 1.74 | 2/18 (2.96)
KIHCRELWHQGQINNIA | EAAKLVE | QQYALLPLA | 0.68 0.54 0.44 0.29 0.71 0.78 | 3/18 (2.42)
NLSYLQGEPTNSVNNVA | QTSKRAH | QQYQHLPLC | 1.29 0.84 1.59 0.87 0.92 1.09 | 0/18
LLWQDFYNGRSQANAVA | EGNQLAD | QQYARLPLV | 0.55 0.89 0.33 0.33 0.08 0.61 | 0/18
NMQLQVRNGNNNKYNIA | AEMKREY | QQYQRLPLS | nd nd nd nd nd nd | 0/18
KLVGVDDNDNNPMSAIA | DVNTLDN | QQYHRLPLD | 3.08 2.10 2.72 2.26 3.58 2.80 | 0/18
QFSNTNMQGNAMWANVA | EATYAEE | QQYARLPLQ | nd nd nd nd nd nd | 0/18
NISIEDVSEHNQANNVA | STDCRCD | QQYFHLPLM | 0.89 0.88 0.86 0.49 0.66 0.70 | 0/18
ALASTGHQVDSQMQNIA | DGMLRES | QQYNRLPLT | 0.54 1.28 1.02 3.28 0.49 0.35 | 0/18
ALSQDGFQQHGMRDSIA | HSDQRLA | QQYYHLPLA | 0.40 0.35 0.27 0.40 0.25 0.55 | 1/18 (2.84)
RIMYEYDSSVDKYNAVA | QAHIRAQ | QHYNRLPLS | 2.79 1.80 1.48 1.66 1.65 2.14 | 2/18 (2.70)
KLVGVDDNDNNPMHAIA | DVSTLDN | QQYHRLPLD | 1.65 1.49 1.18 1.65 1.65 1.85 | 0/18
KLYQVTTEHGAALNNIA | EGARRND | QQYARLPLV | 0.53 0.20 0.29 0.43 0.47 0.48 | 0/18
KVAQGIFDGKRHSHSIA | EVSELCD | QQYSRLPLE | 0.87 0.60 0.52 0.54 0.61 0.73 | 2/18 (2.49)
QINVNRLMNYTMNNAIA | GKTLRVD | QQYARLPLS | nd 2.30 1.72 1.41 1.14 1.32 | 0/18
HFAHPWQSGYDSKQNVA | NDSTVMT | QHYNRLPLS | nd nd nd 4.43 2.87 nd | 0/18
MIEIIPDGYMEMRSNVA | DTSLVRM | QQYARLPLM | 1.81 1.64 1.80 1.82 2.76 1.64 | 0/18
NLDKHDYESRQMINAIA | DMSTLMA | QQYASLPLH | 1.17 1.14 1.14 1.46 1.16 1.05 | 0/18
KLMTQFGHQMDHKNSIA | HVDMLAQ | QQYMHLPLI | 2.31 1.81 nd 0.99 3.19 2.20 | 1/18 (2.41)
QMTESDHGHNAGVGSIA | DATESME | QQYMHLPLS | 0.20 0.22 0.27 0.07 0.21 0.43 | 2/18 (4.05)
HIQGYFTMPENANNNIA | EKHYQVR | QQYYRLPLA | nd nd nd nd 2.29 nd | 0/18
QITNQTAGISNGIDSIA | EETNLTD | QQYGHLPLS | nd nd 3.24 nd nd nd | 1/18 (2.34)
KLMMSLQGNPKDWYAIA | EGISATT | QQYARLPLM | nd nd 1.77 1.28 nd nd | 0/18
SITVIDNPGSQLHNNIA | QGSCKAE | QQYIRLPLI | 0.51 0.79 0.77 0.47 0.67 0.46 | 0/18
NLSLNHENYGEDMQSIA | QAQTLAF | QQYHHLPLM | 0.49 0.61 0.63 0.88 0.56 0.85 | 2/18 (3.15)
QISVFELQGTGWAQNIA | QADHRTE | QQFSRLPLV | nd nd nd 1.58 2.01 nd | 0/18
LMNERMMMGENQQHNIA | NAAHLVK | QQYHRLPLG | 1.02 0.70 0.38 0.76 0.75 0.39 | 0/18
KFKAMLNMWARDIHNVA | HADERAV | QQYSRLPLG | 0.73 0.47 0.24 0.51 0.54 0.53 | 1/18 (3.19)
SLDNLTNEQNAYGSNIA | NADVLVY | QQYYRLPIV | 1.25 0.64 0.74 0.66 1.33 1.08 | 2/18 (3.11)
TLSGHQYNYSQKKNSIA | EDNNIRL | QQYHRLPFM | nd nd nd nd nd nd | 0/18
NISLFIPEFKMWDNNIA | GATLRPT | QDYARLPLS | 2.23 1.91 1.74 1.58 1.44 2.02 | 0/18